From patent US7094423B1, “Methods for preparation of lipid-encapsulated therapeutic agents” (INEX Pharmaceuticals Corp., priority 1999, dated 2006)

Experiment: Leakage experiments: ethanol-induced permeabilization of LUVs
Type: physicochemical
Conditions: DSPC/Chol/PEG-CerC14/DODAP liposomes in 40% ethanol
Experimental: Leakage experiments. Ethanol-induced permeabilization of LUVs was measured at different temperatures and as a function of the size (MW) of the entrapped solute. Calcein was used as a low molecular weight marker for leakage and FITC-dextran (MW 19500) as a high molecular weight marker. Leakage of calcein entrapped at self-quenching concentrations was followed by monitoring the dequenching of the calcein fluorescence. LUVs were prepared by hydration of a lipid film with an aqueous solution containing 75 mM calcein and 5 mM HEPES adjusted to pH 7.5 by addition of sodium hydroxide, followed by 5 freeze/thaw cycles and extrusion through 2 stacked 100 nm filters (10 passes). In the case of […] extrusion was performed at 60° C. […] The fluorescence at 520 nm was measured (excitation wavelength […], long-pass filter at 430 nm) with a Perkin Elmer LS50 Fluorimeter (Perkin Elmer) after 5 min of incubation at the corresponding temperature. […] The loss of FITC-dextran from liposomes exposed to 40% ethanol was determined after removal of released FITC-dextran by size exclusion chromatography on a Sepharose CL4B column (1.5×15 cm). The FITC/LRh-PE ratio was measured before and after addition of ethanol. FITC and LRh-PE fluorescence were measured at 515 nm and 590 nm with the excitation wavelength set to 485 nm and 560 nm, respectively.

FITC-dextran
release from liposomes: less than 10%
